Target: mutant (F36V) FKBP
Test: Competitive Binding FP Assay
Design: species or system human
Conditions: Synthetic Multimerizers table; monomer value in brackets; mean of duplicates; normalized to FK506 = […] (substituted phenyl/lower aliphatic series: to AP1903 values); read-out: FKBPF36V binding affinity IC50

Molecule `CCC(CC)C(=O)N1CCCC[C@H]1C(=O)O[C@H](CCc1ccc(OC)c(OC)c1)c1cccc(OCC(=O)NCCNC(=O)COc2cccc([C@@H](CCc3ccc(OC)c(OC)c3)OC(=O)[C@@H]3CCCCN3C(=O)C(CC)CC)c2)c1` [AP1891] has an IC50 of 174 nM.
